For the test, the target named is T1, Monoamine Oxidase B (Rattus norvegicus, UniProt P19643).
T1 construct: serves as the tissue source for mitochondrial monoamine oxidase; from tissue; host or cells: male Wistar rat whole brain minus cerebellum, 18,000 g pellet (P2)
Description: in vitro inhibition of monoamine oxidase assay (monoamine oxidase B). To be noted: rat brain mitochondria, [14C]-phenethylamine 200 μM, pH 7.4, 37° C., 30 min; log-probit. The format is biochemical, rat (male Wistar, whole brain minus cerebellum). On the procedure: The pyridiniminyl-1,2-benzisoxazoles and -benzisothiazoles of the present invention are also useful as agents for treating depression. […] In this assay, a modification of an assay described by M. V. Kindt, et al., Europ. J. Pharmacol. 146: 313-318 1988.
The following reagents are prepared:
1. Phosphate buffer (0.5M), pH 7.4;
134.4 g dibasic sodium phosphate heptahydrate q.s. to 1 liter in distilled water (A) 17.3 g monobasic sodium phosphate q.s. to 250 mL in distilled water (B) Adjust pH of A to 7.4 by slowly adding B (volumes as needed)
Dilute 1:10 in distilled water (0.05M phosphate buffer, pH 7.4)
2. 0.25M Sucrose (phosphate buffered):
21.4 g sucrose, q.s. to 250 mL with 0.05M phosphate buffer
4. Substrate for monoamine oxidase-B a. -phenethylamine is obtained from Sigma Chemical Company. A 5 mM stock solution is made up in 0.01 N-hydrochloride. The solution is used to dilute the specific activity of the [^14 C]- --phenethylamine. […]
b. --[ethyl-1-^14 C]-phenethylamine hydrochloride (40-50 mCi/mmol) is obtained from New England Nuclear. c. […]
Tubes are preincubated for 15 minutes at 37° C. and the assay is started by adding 40 μl of combined substrate ([^3 H]-5-hydroxytryptamine and [^14 C]- -phenethylamine) at 15 second intervals. […] Tissue blank values are determined by adding the acid before the radioactive substrate. […] IC50 values are determined by log-probit analysis.

Protein sequences, listed by entry. Tags and fused reporters are not part of them.
UniProt P19643, whole entry: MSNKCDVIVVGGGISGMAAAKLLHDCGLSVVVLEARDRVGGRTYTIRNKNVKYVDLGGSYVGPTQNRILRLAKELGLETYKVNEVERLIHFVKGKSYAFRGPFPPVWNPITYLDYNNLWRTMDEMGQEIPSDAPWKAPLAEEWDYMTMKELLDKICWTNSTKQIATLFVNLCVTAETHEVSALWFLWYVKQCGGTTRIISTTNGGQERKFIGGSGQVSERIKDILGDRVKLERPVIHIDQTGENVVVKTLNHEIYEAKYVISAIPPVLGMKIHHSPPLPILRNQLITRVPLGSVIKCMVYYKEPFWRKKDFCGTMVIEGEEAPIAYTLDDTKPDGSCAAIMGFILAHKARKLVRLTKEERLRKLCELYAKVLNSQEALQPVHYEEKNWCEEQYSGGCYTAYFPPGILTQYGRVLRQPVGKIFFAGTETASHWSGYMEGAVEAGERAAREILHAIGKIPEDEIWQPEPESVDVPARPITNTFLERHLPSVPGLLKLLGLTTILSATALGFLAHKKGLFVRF

By IC50 is commonly meant the point on the concentration scale where inhibition reaches its midpoint. Low values mean greater potency, high ones weaker potency.

Take `COc1cc(Br)c2oc(C3CCNCC3)cc2c1` [brofaromine, reference compound]: the IC50 worked out at 23.4 µM.

(Values after patent US5948798A, “Pyridiniminyl-1,2-benzisoxazoles and -benzisothiazoles” (Hoechst Marion Roussel, Inc., priority 1997, dated 1999).)
